From ChEMBL document CHEMBL3627640 (Bioorg Med Chem, 2015)

Target: T1, Mitogen-activated protein kinase kinase kinase 7 (Homo sapiens, UniProt O43318)
T1 sequence (O43318 whole entry): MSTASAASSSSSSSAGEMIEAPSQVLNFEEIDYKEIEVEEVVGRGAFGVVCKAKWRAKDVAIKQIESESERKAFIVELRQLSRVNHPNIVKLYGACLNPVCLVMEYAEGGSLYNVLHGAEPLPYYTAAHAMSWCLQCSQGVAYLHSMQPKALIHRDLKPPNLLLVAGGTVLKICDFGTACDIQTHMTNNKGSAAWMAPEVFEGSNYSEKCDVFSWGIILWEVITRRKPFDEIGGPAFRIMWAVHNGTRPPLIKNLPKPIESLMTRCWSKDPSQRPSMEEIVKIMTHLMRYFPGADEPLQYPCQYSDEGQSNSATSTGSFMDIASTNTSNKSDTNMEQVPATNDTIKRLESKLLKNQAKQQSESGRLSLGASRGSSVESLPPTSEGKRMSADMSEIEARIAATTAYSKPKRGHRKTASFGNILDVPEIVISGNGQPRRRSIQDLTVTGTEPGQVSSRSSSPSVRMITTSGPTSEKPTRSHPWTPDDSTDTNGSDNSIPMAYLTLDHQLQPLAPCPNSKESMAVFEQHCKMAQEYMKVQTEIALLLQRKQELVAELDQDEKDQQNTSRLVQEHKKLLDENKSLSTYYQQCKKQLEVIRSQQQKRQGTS
Test: Inhibition of TAK1 (unknown origin) expressed in sf9 cells assessed as 32P level incorporation into myelin basic protein incubated for 5 mins at 30 degC by immunoprecipitation method

COc1cc(O)c2c(c1)/C=C/C[C@H](O)[C@H](O)C(=O)/C=C\C[C@H](C)OC2=O
IC50: 8.1 nM
